Measured values as given in publication PMC10296347, “Identification of the Stapled α-Helical Peptide ATSP-7041 as a Substrate and Strong Inhibitor of OATP1B1 In Vitro” (Biomolecules, 2023).

The chains behind the UniProt entries cited, without tags or fusion partners.
UniProt P10635, whole entry: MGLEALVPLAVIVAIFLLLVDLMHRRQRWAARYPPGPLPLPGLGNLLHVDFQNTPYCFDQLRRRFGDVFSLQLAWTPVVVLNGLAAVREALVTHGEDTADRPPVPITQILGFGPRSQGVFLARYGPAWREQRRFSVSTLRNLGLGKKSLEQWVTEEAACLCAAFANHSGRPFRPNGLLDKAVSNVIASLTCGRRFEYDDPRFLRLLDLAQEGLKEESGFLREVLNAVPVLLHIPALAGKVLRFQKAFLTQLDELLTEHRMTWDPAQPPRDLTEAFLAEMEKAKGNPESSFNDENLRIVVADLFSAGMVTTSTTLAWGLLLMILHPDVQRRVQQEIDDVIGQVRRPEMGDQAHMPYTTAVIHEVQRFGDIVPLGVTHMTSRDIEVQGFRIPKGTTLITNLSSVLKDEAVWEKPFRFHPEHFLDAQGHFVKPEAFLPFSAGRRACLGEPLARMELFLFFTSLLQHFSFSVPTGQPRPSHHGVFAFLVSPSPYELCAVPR
UniProt P05177, whole entry: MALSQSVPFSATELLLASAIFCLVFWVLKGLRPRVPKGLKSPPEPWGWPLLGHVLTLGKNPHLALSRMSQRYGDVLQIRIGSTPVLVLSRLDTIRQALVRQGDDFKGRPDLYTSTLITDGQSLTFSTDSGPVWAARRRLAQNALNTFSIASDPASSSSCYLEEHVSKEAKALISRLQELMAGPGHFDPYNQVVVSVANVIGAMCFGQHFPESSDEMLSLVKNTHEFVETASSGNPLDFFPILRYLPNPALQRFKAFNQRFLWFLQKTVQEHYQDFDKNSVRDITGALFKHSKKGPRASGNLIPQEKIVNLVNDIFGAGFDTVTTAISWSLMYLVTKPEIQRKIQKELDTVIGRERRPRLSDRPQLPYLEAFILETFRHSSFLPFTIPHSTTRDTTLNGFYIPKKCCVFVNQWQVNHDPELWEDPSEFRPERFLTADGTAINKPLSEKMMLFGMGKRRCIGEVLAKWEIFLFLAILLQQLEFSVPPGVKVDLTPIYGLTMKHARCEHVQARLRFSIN

Assays:
CYP2D6 = CYP2D6 (Homo sapiens, UniProt P10635); assay: CYP inhibitor screening kit, yeast microsomes expressing human CYP2D6; conditions: Quinidine 3 μM
CYP1A2 = CYP1A2 (Homo sapiens, UniProt P05177); assay: CYP inhibitor screening kit, yeast microsomes expressing human CYP1A2; conditions: α-naphthoflavone 6 μM

Compound | Residual activity (% of control) CYP2D6, positive control inhibitor (CYP2D6) | Residual activity (% of control) CYP1A2, positive control inhibitor (CYP1A2)
C=C[C@H]1C[N@@]2CC[C@H]1C[C@@H]2[C@@H](O)c1ccnc2ccc(OC)cc12 [Quinidine] | 2.25 ± 0.24 % of control | –
O=c1cc(-c2ccccc2)oc2c1ccc1ccccc12 [α-naphthoflavone] | – | ≈ 0 % of control
